Laboratory results as given in PubChem BioAssay AID1135 (Sanford-Burnham Center for Chemical Genomics, 2008).
This is a selection; strong and weak results do not stand in their true shares. Activity calls are given as the source filed them.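 The calls were made as follows: active = over 50% inhibition of tissue-nonspecific alkaline phosphatase at 20 µM in the single-dose screen; inactive = the rest.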

Amino acid sequences for entries named in this document (tags omitted).
UniProt P05186, whole entry: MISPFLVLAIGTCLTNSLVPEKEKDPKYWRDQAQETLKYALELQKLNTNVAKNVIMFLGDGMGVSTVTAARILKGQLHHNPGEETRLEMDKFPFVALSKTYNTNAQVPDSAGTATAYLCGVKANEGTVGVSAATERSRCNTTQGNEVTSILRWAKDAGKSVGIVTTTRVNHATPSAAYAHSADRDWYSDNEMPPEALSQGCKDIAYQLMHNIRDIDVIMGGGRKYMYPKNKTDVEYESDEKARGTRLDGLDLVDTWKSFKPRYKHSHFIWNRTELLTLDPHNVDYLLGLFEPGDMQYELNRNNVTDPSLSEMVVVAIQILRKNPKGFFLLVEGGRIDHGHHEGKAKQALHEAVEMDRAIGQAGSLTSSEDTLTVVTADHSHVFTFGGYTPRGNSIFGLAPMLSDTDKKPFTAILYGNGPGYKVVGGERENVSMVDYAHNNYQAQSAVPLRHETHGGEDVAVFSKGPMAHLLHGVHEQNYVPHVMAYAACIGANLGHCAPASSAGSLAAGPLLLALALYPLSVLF

Each compound was assayed against Alkaline phosphatase, tissue-nonspecific isozyme (Homo sapiens) (UniProt P05186) (assay: blockers of alkaline phosphatase TNAP activity – biochemical, luminescent, high phosphate acceptor level, uHTS, primary screen (AID 1135;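 also: plate controls were DMSO wells for no effect and EDTA-quenched wells as full inhibition for full effect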)). Conditions: purified TNAP, CDP-star luminescence, 1 M DEA; at 20 µM; hits give high values.

Compound | inhibition
O=C(NCC1(N2CCOCC2)CCCCC1)c1cc(=O)[nH]c2ccccc12 | inactive: -2.2%
CN1CCN(CCOC(=O)C(O)(c2ccccc2)c2ccccc2)CC1 | inactive: -6.2%
COc1ccc(NC2CCN(C(=O)OC(C)(C)C)CC2)cc1 | inactive: -3.5%
N#CC1(Nc2ccccc2)CCN(CCc2ccccc2)CC1 | inactive: -7.6%
O=C(NCC1(N2CCCCC2)CCCCC1)c1cccc([N+](=O)[O-])c1 | inactive: -1.2%
CC(C)c1ccc(NC2CCN(C(=O)OC(C)(C)C)CC2)cc1 | inactive: -5.2%
COc1ccc(CN(CCCl)CCCl)cc1Cl | inactive: -7.2%
CN(C)c1cccc(C(=O)NCC2(N3CCCCC3)CCCCC2)c1 | inactive: -3.6%
O=C(NCC1(N2CCOCC2)CCCCC1)c1cc2ccccc2o1 | inactive: -3.6%
O=C(OC1CN2CCC1CC2)C1c2ccccc2Oc2ccccc21 (stereo not given) | inactive: -1%
CCOC(=O)N1CCC(Nc2ccc(OC)cc2)CC1 | inactive: -0.3%
COc1ccc(C(=O)NCC2(N3CCCCC3)CCCCC2)c(OC)c1OC | inactive: -5%
COc1ccc(NC2CCN(CCc3ccccc3)CC2)c(OC)c1 | inactive: -4.2%
CCN1CCC(Nc2cccc(F)c2)CC1 | inactive: -3.6%
CN(C)c1ccc(C(=O)NCC2(N3CCCCC3)CCCCC2)cc1 | inactive: -5.4%
Fc1ccccc1NC1CCN(Cc2ccccc2)CC1 | inactive: -9.9%
COc1cc(OC)cc(C(=O)NCC2(N3CCOCC3)CCCCC2)c1 | inactive: -0.5%
CCC(CO)(C(=O)OC1CN2CCC1CC2)c1ccccc1 (stereo not given) | inactive: -2.8%
CCOc1ncccc1C(=O)NCC1(N2CCOCC2)CCCCC1 | inactive: -5.1%
CC(C)(C)OC(=O)N1CCC(Nc2ccccc2)CC1 | inactive: -1.2%
N/C(=N\O)c1c(N)no[n+]1[O-] | inactive: -5%
O=C(OC1CN2CCC1CC2)C1c2ccccc2C=Cc2ccccc21 (stereo not given) | inactive: -5.6%
COc1ccc(C(=O)NCC2(N3CCOCC3)CCCCC2)cc1OC | inactive: -4.9%
c1ccc(CN2CCC(Nc3ccccc3)CC2)cc1 | inactive: -3.9%
N#Cc1ccc(C(=O)NCC2(N3CCCCC3)CCCCC2)cc1 | inactive: -3.1%
